# Laboratory results published in PubChem BioAssay AID1008 (NMMLSC, 2008).
# Chains of the proteins cited; added tags and fusions are not shown. Lines headed by an entry give the natural chain unless they say otherwise; changes in a name come on top.
# UniProt Q16548: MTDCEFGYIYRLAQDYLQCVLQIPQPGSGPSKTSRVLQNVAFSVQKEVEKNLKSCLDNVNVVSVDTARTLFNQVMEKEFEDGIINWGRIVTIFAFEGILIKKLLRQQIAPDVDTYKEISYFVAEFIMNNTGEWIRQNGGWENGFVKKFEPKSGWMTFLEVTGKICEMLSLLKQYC
# Only a part is listed here, and it is no random draw. Calls of active or inactive are those of the source. No stated cut-off is given here; in the data, active means inhibition above about 40%.
# Target: Bcl-2-related protein A1 (Homo sapiens) (UniProt Q16548)
# Test: inhibitors of Bim binding to Bfl-1, primary screen, biochemical, multiplexed, bead-based flow cytometry (AID 1008);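 further: 0% = wells without compound plus tracer and 100% = blocker peptide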
# Conditions: Bim-Bfl-1 binding inhibition, at 10 µM, stronger effect = higher value
row,Structure (SMILES),inhibition
1,O=[N+]([O-])c1ncn(CCn2ncnc2[N+](=O)[O-])n1,inactive: -2%
2,CCN(/C(=N/P(=O)(N1CCOCC1)N1CCOCC1)N1CCOCC1)c1ccc(OC)cc1,inactive: 2%
3,CC1CCN(C(=O)Oc2c(Cl)cc(Cl)c3cccnc23)CC1,inactive: -4%
4,CC(C)=N/N=C(\N)N[N+](=O)[O-],inactive: -11%
5,CN(C)C(=O)OCCc1n(C)cc[n+]1C,inactive: -4%
6,COc1ccc(C2=NCC(CBr)S2)cc1 (centres undefined),inactive: -9%
7,Cc1ccc(NP(=O)(Oc2ccccc2)Oc2ccccc2)nc1,inactive: -5%
8,CCc1nc2c(n1)c1c(non1O)c1c2no[n+]1[O-],inactive: 19%
9,O=[N+]([O-])c1cc([N+](=O)[O-])c(CCNc2ccccc2)c([N+](=O)[O-])c1,inactive: -1%
10,O=[N+]([O-])c1cccc2n[nH]nc12,inactive: -9%
11,CC(=O)N1C2C3N(C(C)=O)C1C1N(C(C)=O)C(C(N1C(C)=O)N3C(C)=O)N2C(C)=O,inactive: -7%
12,Oc1ccccc1CNc1ccccn1,inactive: -21%
13,Cc1c2non([O-])c-2c(C)[n+](=O)[n+]1[O-],inactive: 4%
14,O=C(NC(Sc1ccncn1)C(Cl)(Cl)Cl)c1ccccc1 (centres undefined),inactive: 0%
15,CC(C)CC(=O)NC(Sc1ccc(Cl)cc1)C(Cl)(Cl)Cl (centres undefined),inactive: -9%
16,Cc1ccc(N/C(=N/P(=O)(N2CCOCC2)N2CCOCC2)N2CCOCC2)cc1,inactive: -1%
17,NC(=O)c1cc([N+](=O)[O-])cc([N+](=O)[O-])c1N,inactive: -2%
18,Clc1ccc(Cl)c(NC2=NCC(CBr)S2)c1 (centres undefined),inactive: -3%
19,CN1CCCC(OC(=O)C(c2ccccc2)c2ccccc2)C1 (centres undefined),inactive: 3%
20,COc1ccccc1OP(=O)(Nc1ccc(C)cn1)Oc1ccccc1OC,inactive: -6%
21,CCN(N=Nc1nonc1N)c1nonc1N,inactive: -16%
22,CCOP(=O)(Nc1ccccc1)OCC,inactive: -11%
23,Cc1cc(SC(NC(=O)c2ccc(F)cc2)C(Cl)(Cl)Cl)ncn1 (centres undefined),inactive: -10%
24,CCC(=O)N1C2C3N(C(=O)CC)C1C1N(C(=O)CC)C(C(N1C(=O)CC)N3C(=O)CC)N2C(=O)CC,inactive: 6%
25,COC(=O)c1cc2c(s1)N=C(c1ccccc1)N(C)P2(=O)N1CCOCC1 (centres undefined),inactive: -3%
26,Cc1ccc(OP(=O)(Nc2ccccn2)Oc2ccc(C)cc2)cc1,inactive: -1%
27,CC(=O)NC(SC(=S)N(CC(C)C)CC(C)C)C(Cl)(Cl)Cl (centres undefined),inactive: 1%

row,Structure (SMILES),inhibition
1,O=c1c2cc([N+](=O)[O-])ccc2[nH]c2c([N+](=O)[O-])cc([N+](=O)[O-])cc12,inactive: -5%
2,c1ccc(-c2nn[nH]n2)c(-c2nn[nH]n2)c1,inactive: 9%
3,CCOC(=O)NC(Sc1ccccc1)C(Cl)(Cl)Cl (centres undefined),inactive: 0%
4,CCNC(=S)/N=C(\N)N[N+](=O)[O-],inactive: -4%
5,O=C(NC1CCS(=O)(=O)C1)NP(=S)(Oc1ccccc1)Oc1ccccc1 (centres undefined),inactive: -8%
6,CC(=O)Nc1ccc(Oc2c([N+](=O)[O-])cc([N+](=O)[O-])cc2[N+](=O)[O-])cc1,inactive: -1%
7,O=P1(Nc2nc3ccc(Cl)cc3s2)COc2ccccc2O1 (centres undefined),inactive: -9%
8,CCOc1ccc(C2=NCC(CBr)S2)cc1 (centres undefined),inactive: -1%
9,CC(C)(C)C(=O)NC(Sc1ccccc1)C(Cl)(Cl)Cl (centres undefined),inactive: -4%
10,CC(C)C(=O)NC(Sc1ccccc1)C(Cl)(Cl)Cl (centres undefined),inactive: -15%
11,O=P(Nc1nccs1)(c1ccccc1)c1ccccc1,inactive: -11%
12,c1nnnn1CCn1cnnn1,inactive: -9%
13,CC(=O)NC(SC(=S)N(C)C)C(Cl)(Cl)Cl (centres undefined),inactive: -2%
14,O=C(OC1CN2CCC1CC2)c1cccc(Cl)c1 (centres undefined),inactive: -4%
15,C(Cc1nn[nH]n1)Cc1nn[nH]n1,inactive: -2%
16,O=P(Nc1ccccn1)(c1ccc(Br)cc1)c1ccc(Br)cc1,inactive: -5%
17,O=P1(Nc2ncccn2)COc2ccccc2OC1,inactive: -10%
18,O=P1(Nc2ccc(Br)cn2)COc2ccccc2OC1,inactive: -6%
19,Cc1ccc(OCC(=O)OC2CN3CCC2CC3)cc1 (centres undefined),inactive: -12%
20,Cc1nn(-c2ccccc2)c2c1P(=O)(N1CCOCC1)N(C)C(c1ccccc1)=N2 (centres undefined),inactive: -4%
21,CC1CCC(C(C)C)C(OP(=O)(Nc2ccccn2)c2ccccc2)C1 (centres undefined),inactive: -9%
22,CN(C)C1(CNC(=O)c2ccc(S(C)(=O)=O)cc2)CCCCC1,inactive: 2%
23,CC(C)/C=N\N=C(\N)N[N+](=O)[O-],inactive: -6%
24,CN(C(=O)Cc1ccc(Cl)c(Cl)c1)[C@@H]1CCCC[C@H]1N1CCCC1,inactive: 0%
25,O=P1(Nc2ccccn2)COc2ccccc2OC1,inactive: -16%
26,Clc1n[nH]nc1-c1nn[nH][15n]1,inactive: -20%
27,Cc1ccc(NCCc2c([N+](=O)[O-])cc([N+](=O)[O-])cc2[N+](=O)[O-])cc1,inactive: 1%

row,Structure (SMILES),inhibition
1,COc1cc(C2NCCC3(OCCO3)C2(C)C)cc(OC)c1OC (centres undefined),inactive: -5%
2,CCOP(=O)(Nc1cccc2ccccc12)OCC,inactive: -4%
3,COc1cc(C(=O)NCC2(N3CCOCC3)CCCCC2)cc(Cl)c1OC(C)C,inactive: -8%
4,Cc1cccc(OCC(=O)OC2CN3CCC2CC3)c1 (centres undefined),inactive: -2%
5,CCOP1(=S)c2c(C)nn(CCC#N)c2N=C(c2ccc(F)cc2)N1C (centres undefined),inactive: -9%
6,O=[N+]([O-])c1ccc2c(c1)nnn2O,inactive: -6%
7,CCOP1(=S)c2c(C)nn(CCC#N)c2N=C(c2ccccc2F)N1C (centres undefined),inactive: -10%
8,O=P(Nc1nccs1)(c1ccccc1)c1nc2ccccc2s1 (centres undefined),inactive: -12%
9,O=P(Nc1nccs1)(Oc1ccccc1)Oc1ccccc1,inactive: -4%
10,ClCCSc1nnc(-c2cccnc2)o1,inactive: -5%
11,CCN(CC)C(=S)SC(NC=O)C(Cl)(Cl)Cl (centres undefined),inactive: 0%
12,CC(C)NC(=O)NP(=O)(Oc1ccccc1)Oc1ccccc1,inactive: -9%
13,O=[N+]([O-])c1cc([N+](=O)[O-])c(-c2ccn[nH]2)s1,inactive: 1%
14,Cc1ccc2nc3c(c(C)c2c1)CC(C(Cl)Cl)S3 (centres undefined),inactive: -10%
15,COc1ccc(N/C(=N/P(=O)(N2CCOCC2)N2CCOCC2)N2CCOCC2)cc1,inactive: -9%
16,Cc1c2c(nc3ccccc13)SC(C(Cl)Cl)C2 (centres undefined),inactive: -13%
17,O=C(OC1CN2CCC1CC2)C12CC3CC(CC(C3)C1)C2 (centres undefined),inactive: -12%
18,Cc1cc(=O)[nH]c(N[N+](=O)[O-])n1,inactive: -6%
19,COc1ccc2nc(NP(=O)(c3ccccc3)c3ccccc3)sc2c1,inactive: -4%
20,CCC(C)N(CC(C)C)C(=S)SC(NC(C)=O)C(Cl)(Cl)Cl (centres undefined),inactive: 3%
21,COP1(=S)c2c(C)nn(CCC#N)c2N=C(c2ccc(F)cc2)N1C (centres undefined),inactive: -10%
22,O=C(COc1ccccc1)OC1CN2CCC1CC2 (centres undefined),inactive: -4%
23,O=P(Nc1ccccn1)(c1cccc2ccccc12)c1cccc2ccccc12,inactive: -7%
24,Cc1cc(SC(NC=O)C(Cl)(Cl)Cl)ncn1 (centres undefined),inactive: 0%
25,Cc1cc(SC(NC(=O)c2ccccc2)C(Cl)(Cl)Cl)nc(C(C)C)n1 (centres undefined),inactive: 19%
